Data on one compound can be found in USRE39181E1, “Aqueous risperidone formulations” (priority 1994, dated 2006).

Where a name gives a salt, the structure may show the parent alone.

A short description of this series: physchem.

On to `Cc1nc2n(c(=O)c1CCN1CCC(c3noc4cc(F)ccc34)CC1)CCCC2` [risperidone hydrochloride], for which the solubility is 19.6 mg/mL.
